The list shows a part of the results, in another mix than the full data. Results filed as inconclusive are left out. Calls of active or inactive are those of the source. Calls come from the whole dose curve; as a rule, active = well fitted cell-killing curve with a large enough effect; inconclusive = small, poorly fitted or top-dose-only effect, or effect the other way; inactive = flat fitted curve, though single readings scatter.

This test is described as follows: GF-AFC viability counterscreen for inhibitors of alpha-synuclein gene (SNCA) expression. Note: nearly all actives have a fitted effect of over 30% in size. The following applies: HEK-293-SNCA-luc viability, GF-AFC fluorescence, 24 h; at 57.1 µM (top of the series) unless noted. The source says:
Assay Submitter (PI): Daniel R. Scoles Ph.D.
Department of Neurology, University of Utah, Salt Lake City, Utah
Accumulation of alpha-synuclein is a main underlying pathological feature of Parkinson's disease (PD) and alpha-synucleinopathies, for which lowering expression of the alpha-synuclein gene (SNCA) is a potential therapeutic avenue. Using a cell-based luciferase reporter of SNCA expression we performed a quantitative high throughput screen (qHTS) of 155,885 compounds in dose response. The screening assay was generated using genome editing to insert the luciferase gene downstream and in frame of the SNCA gene in HEK-293 cells (1). A viability counterscreen using GF-AFC was used to eliminate cytotoxic and false positive compounds. After in silico analysis (clustering, removal of frequent hitter nuisance chemotypes), inhibitor compounds from the primary screen were selected for follow up and re-tested at 11-doses in the SNCA-luc cells (luciferase and GF-AFC confirmation), and in CMV-luc expressing cell line to flag general transcriptional repressors.
Described herein are the results of the GF-AFC viability counterscreen for SNCA inhibitors; inactivity (no decrease in fluorescence signal, not cytotoxic) is the desired output for this assay.
1. Dansithong, W., Paul, S., Scoles, D. R., Pulst, S. M., and Huynh, D. P. (2015) Generation of SNCA Cell Models Using Zinc Finger Nuclease (ZFN) Technology for Efficient High-Throughput Drug Screening. PLoS ONE 10, e0136930.
SEQUENCE No. (e.g., 1, 2, 3, etc.); […] (e.g., Cells, Incubation, Reagent, etc.); VALUE; DESCRIPTION
1; Cells; 4 uL; Dispense 1500 HEK-293-SNCA-luc cells/well into Greiner 1536-well white / solid bottom tissue culture treated plate. The plate was covered with metal lids with gas-exchange holes.
2; Incubate; 24 hours; Incubate at 37C, 5% CO2, 95% RH.
3; Compounds; 23 nL; Compounds and controls were transferred via a Kalypsys Pin Tool (Wako USA) equipped with a 1536-slotted pin array. The plate was covered with metal lids with gas-exchange holes.
4; Incubate; 24 hours; Incubate at 37C, 5% CO2, 95% RH.
5; Dispense; 1 uL; Dispense Gly-Phe-7-amino-4-trifluoromethylcoumarin (GF-AFC, prepared at 125 uM in PBS) was added. The plate was covered with metal lids with gas-exchange holes.
6; Incubate; 30 min; Incubate at 37C, 5% CO2.
7; Detector; Fluorescence; Measure fluorescence with ViewLux microplate reader (PerkinElmer) equipped with 405/10 excitation and 540/25 emission filters.
8; Dispense; 3 uL; Dispense ONE-Glo ([…]) lucifase detection reagent was added to each well. Plates were covered with metal lids with gas-exchange holes.
9; Incubate; 15 min; Incubate at room temperature.
10; Detector; Luminescence; Measure luminescence with ViewLux microplate reader (PerkinElmer) equipped with clear filters.
NOTES (numbers refer to sequence above)
1; HEK-293-SNCA-luc were cultured and suspended in phenol-red free DMEM (4.5 g/L glucose, 25 mM HEPES, cat #21063 (Thermo)).
3; Compounds were added to the assay plate in an 11-point intra plate dose response, 1:3 titration in DMSO with a final concentration range of […]. Vehicle-only plates, with DMSO being pin-transferred to every well, were inserted at the beginning of screening runs to confirm expected assay performance. Activity was normalized to wells containing medium only (-100% activity, full inhibition) and SNCA-luc cells treated with DMSO vehicle control (0% activity), contained on the same plate as test samples.
10; Signals were analyzed, and dose-response curves were fit using the Hill equation. Compounds in curve classes -1.1, -1.2, -2.1, -2.2 in the SNCA-luc assay were considered active. Compounds were eliminated from further consideration if also active (curve class -1.1, -1.2, -1.3, -1.4, -2.1, -2.2, -2.3, -2.4) in the GF-AFC cytotoxicity assay.
For `Cc1ccccc1C(=O)NCC1(N(C)C)CCCCC1`, the activity change, negative = cytotoxicity was inactive: -8.44%.

`CC(C)(C)c1ccc(C(=O)NCC2(N3CCOCC3)CCCCC2)cc1`: the activity change, negative = cytotoxicity was inactive: 9.71%.

On to `CN(C)C1(CNC(=O)c2ccc(C(C)(C)C)cc2)CCCCC1`, for which the activity change, negative = cytotoxicity was inactive: -5.12%.

Take `CC(=O)N1CCc2ccc(N(C(=O)/C=C/c3cccc(C#N)c3)C3CCN(CCC4CCCC4)CC3)cc21`: the activity change, negative = cytotoxicity is inactive: -16.7%. Turning to `COc1cc(C(=O)NCC2(N3CCOCC3)CCCCC2)cc(OC)c1OC`, the activity change, negative = cytotoxicity was inactive: -6.55%. On to `CCC(=O)N(c1ccccc1)C1CCNCC1`, for which the activity change, negative = cytotoxicity is inactive: -15.4% [at 23.9 µM].

With `O=C(NCC1(N2CCOCC2)CCCCC1)c1ccccc1`, the activity change, negative = cytotoxicity was inactive: -7.91%. Then `O=C(NCC1(N2CCOCC2)CCCCC1)c1ccccc1[N+](=O)[O-]`, with inactive: 6.6%; and `O=C(NCC1(N2CCOCC2)CCCCC1)c1ccc([N+](=O)[O-])cc1`, with inactive: 2.46%. Consider `CCCOc1cccc(C(=O)NCC2(N3CCOCC3)CCCCC2)c1`, for which the activity change, negative = cytotoxicity was inactive: -10.7%. Then `CCOc1ccc(C(=O)NCC2(N3CCOCC3)CCCCC2)cc1`, with inactive: 0.807%. Then `O=C(NCC1(N2CCOCC2)CCCCC1)c1ccccc1Br`, with inactive: -5.43%. Turning to `CCOC(=O)N1CCC(=O)CC1`, the activity change, negative = cytotoxicity is inactive: 1.28% [at 23.9 µM].

Take `CCOC(=O)C(=O)CBr`: the activity change, negative = cytotoxicity was inactive: -3.7%. As to `O=C(NCC1(N2CCOCC2)CCCCC1)c1ccc(Cl)cc1`, the activity change, negative = cytotoxicity is inactive: -3.03%. With `COc1ccccc1C(=O)NCC1(N2CCOCC2)CCCCC1`, the activity change, negative = cytotoxicity was inactive: -16.2%.

Source of the values: PubChem BioAssay AID1671193 (National Center for Advancing Translational Sciences (NCATS), 2021).
